Results reported in US11898187B2 (priority 2017, dated 2024).

Tested on: HiNGT, EcNGT, ApNGT and ApNGT^Q469A
Assay: GlycoSCORES screen for differentially modified (conditionally orthogonal) sequences with four NGTs
Type: biochemical
Conditions: X−1NX+1(T/S)RC library and its X−2 and X−3 extensions, SAMDI

## WPNIT
  differential sequence preference in regard to N-glycosylation: which NGT modifies the sequence: for HiNGT

## VGNIS
  differential sequence preference in regard to N-glycosylation: which NGT modifies the sequence: for EcNGT but not for HiNGT

## AGNIS
  differential sequence preference in regard to N-glycosylation: which NGT modifies the sequence: for EcNGT but not for HiNGT

## NENVT
  differential sequence preference in regard to N-glycosylation: which NGT modifies the sequence: for ApNGT but not for EcNGT or HiNGT

## INWT
  differential sequence preference in regard to N-glycosylation: which NGT modifies the sequence: only for ApNGT^Q469A

## ANVT
  differential sequence preference in regard to N-glycosylation: which NGT modifies the sequence: for HiNGT

## DYNLT
  differential sequence preference in regard to N-glycosylation: which NGT modifies the sequence: only for ApNGT^Q469A

## WPNVT
  differential sequence preference in regard to N-glycosylation: which NGT modifies the sequence: for HiNGT

## YNLT
  differential sequence preference in regard to N-glycosylation: which NGT modifies the sequence: only for ApNGT^Q469A

## FNQT
  differential sequence preference in regard to N-glycosylation: which NGT modifies the sequence: only for ApNGT^Q469A

## WNGS
  differential sequence preference in regard to N-glycosylation: which NGT modifies the sequence: for EcNGT but not for HiNGT

## INQT
  differential sequence preference in regard to N-glycosylation: which NGT modifies the sequence: only for ApNGT^Q469A

## GNIS
  differential sequence preference in regard to N-glycosylation: which NGT modifies the sequence: for EcNGT but not for HiNGT

## WYANVT
  differential sequence preference in regard to N-glycosylation: which NGT modifies the sequence: for HiNGT

## DFNQT
  differential sequence preference in regard to N-glycosylation: which NGT modifies the sequence: only for ApNGT^Q469A

## YGNWS
  differential sequence preference in regard to N-glycosylation: which NGT modifies the sequence: for EcNGT but not for HiNGT

## YNRT
  differential sequence preference in regard to N-glycosylation: which NGT modifies the sequence: only for ApNGT^Q469A

## WPNLT
  differential sequence preference in regard to N-glycosylation: which NGT modifies the sequence: for HiNGT

## SYNLT
  differential sequence preference in regard to N-glycosylation: which NGT modifies the sequence: only for ApNGT^Q469A

## PNLT
  differential sequence preference in regard to N-glycosylation: which NGT modifies the sequence: for HiNGT

## YMGNIS
  differential sequence preference in regard to N-glycosylation: which NGT modifies the sequence: for EcNGT but not for HiNGT

## LNHS
  differential sequence preference in regard to N-glycosylation: which NGT modifies the sequence: for EcNGT but not for HiNGT

## PNVT
  differential sequence preference in regard to N-glycosylation: which NGT modifies the sequence: for HiNGT

## LNENVT
  differential sequence preference in regard to N-glycosylation: which NGT modifies the sequence: for ApNGT but not for EcNGT or HiNGT

## TGNIS
  differential sequence preference in regard to N-glycosylation: which NGT modifies the sequence: for EcNGT but not for HiNGT

## MGNIS
  differential sequence preference in regard to N-glycosylation: which NGT modifies the sequence: for EcNGT but not for HiNGT

## AYNLT
  differential sequence preference in regard to N-glycosylation: which NGT modifies the sequence: only for ApNGT^Q469A

## ENVT
  differential sequence preference in regard to N-glycosylation: which NGT modifies the sequence: for ApNGT but not for EcNGT or HiNGT

## YGNWT
  differential sequence preference in regard to N-glycosylation: which NGT modifies the sequence: for HiNGT

## WDYNLT
  differential sequence preference in regard to N-glycosylation: which NGT modifies the sequence: only for ApNGT^Q469A

## LGNIS
  differential sequence preference in regard to N-glycosylation: which NGT modifies the sequence: for EcNGT but not for HiNGT

## AFNQT
  differential sequence preference in regard to N-glycosylation: which NGT modifies the sequence: only for ApNGT^Q469A

## IGNIS
  differential sequence preference in regard to N-glycosylation: which NGT modifies the sequence: for EcNGT but not for HiNGT

## SFNQT
  differential sequence preference in regard to N-glycosylation: which NGT modifies the sequence: only for ApNGT^Q469A

## FGNWS
  differential sequence preference in regard to N-glycosylation: which NGT modifies the sequence: for EcNGT but not for HiNGT

## WNWT
  differential sequence preference in regard to N-glycosylation: which NGT modifies the sequence: only for ApNGT^Q469A

## FGNIS
  differential sequence preference in regard to N-glycosylation: which NGT modifies the sequence: for EcNGT but not for HiNGT

## PNIT
  differential sequence preference in regard to N-glycosylation: which NGT modifies the sequence: for HiNGT

## WGNWT
  differential sequence preference in regard to N-glycosylation: which NGT modifies the sequence: for HiNGT
